# Patent US20250367263A9, “Therapeutic Regimens and Methods for Treatment of Cardiovascular Risk Factors using a GLP-1R and GCGR Agonist” (Spitfire Pharma LLC, priority 2022, published 2025)
# Chains of the proteins cited; added tags and fusions are not shown. Residues count along the entry.
# UniProt P43220, 24-463: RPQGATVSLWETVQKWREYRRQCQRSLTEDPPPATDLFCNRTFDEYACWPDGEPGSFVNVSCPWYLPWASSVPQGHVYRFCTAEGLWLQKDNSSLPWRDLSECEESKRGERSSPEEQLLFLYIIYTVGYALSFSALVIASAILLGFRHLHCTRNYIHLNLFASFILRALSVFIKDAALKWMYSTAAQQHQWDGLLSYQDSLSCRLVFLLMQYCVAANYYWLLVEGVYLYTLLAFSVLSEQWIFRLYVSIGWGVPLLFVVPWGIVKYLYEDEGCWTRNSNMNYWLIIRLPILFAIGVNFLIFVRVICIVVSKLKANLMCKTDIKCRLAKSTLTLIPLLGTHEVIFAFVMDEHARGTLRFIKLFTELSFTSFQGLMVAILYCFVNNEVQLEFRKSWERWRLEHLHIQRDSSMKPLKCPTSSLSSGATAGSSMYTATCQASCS
# Experiments:
# [1] = molecular target: glucagon-like peptide 1 receptor (GLP-1R) (Homo sapiens, UniProt P43220); experiment: GLP-1R agonist activity (cellular assay); assay type: cell-based
# Source text: This disclosure relates to a dual agonist peptide(s) as well as pharmaceutical dosage formulations comprising, and methods for using, the same. The dual agonist peptides have affinity for, and in preferred embodiments about equal affinity for, glucagon-like peptide 1 receptor (GLP-1R) and glucagon receptor (GCGR), as may be determined using a cellular assay. In preferred embodiments, this disclosure provides methods for using pemvidutide (e.g., preferably pharmaceutical dosage formulation comprising SEQ ID NO: 1) that upon administration to a human being prevents and/or treats cardiovascular (CV) disease and/or CV disease-related conditions, symptoms, causes, and/or risks thereof. In some embodiments, the human being is overweight, obese (e.g., a body mass index of at least about 25), and may or may not suffer from type 2 diabetes. In preferred embodiments, the administration of pemvidutide as disclosed herein results in the weight loss and/or a reduction in waistline (“waist circumference”) measurements. In preferred embodiments, the CV disease-related conditions, including but not limited to high cholesterol, triglycerides, LDL and/or VLDL particle concentration and/or diameter, weight loss and/or reduction in waistline measurement, is significant as measured against an untreated or control (e.g., vehicle-treated) individual and/or population. […]
# [2] = tested on: subjects with overweight/obesity (BMI 25-40 kg/m^2); experiment: Phase I clinical trial (NCT0456124), pharmacodynamic endpoints and tolerability, 12 weeks weekly dosing; assay type: in vivo, human
# Procedure: To test the lipid-lowering effects of Pemvidutide, an analysis of Phase I clinical trial (NCT0456124) data was carried out. The subjects with overweight/obesity (BMI 25-40 kg/m^2) were randomized at 1 site in Australia (NCT0456124). Subjects were randomized 4:1 pemvidutide:placebo, with placebos pooled. The pemvidutide doses were 1.2 mg, 1.8 mg, and 2.4 mg, administered weekly for twelve (12) weeks, with no dose titration or adjunctive lifestyle intervention (no diet or exercise interventions). […] Lipoprotein and glycoprotein profiling covering 33 lipoprotein related parameters was performed by ^1H-NMR on fasting plasma samples obtained at Day −1 (baseline), Day 43, and Day 84 from the 34 subjects who completed NCT0456124. Lipidomic profiling covering 600 lipid species was performed by ultra-high performance liquid chromatography-mass spectrometry on fasting plasma samples obtained at Day −1 (baseline), Day 43, and Day 84 from the 34 subjects who completed NCT0456124. For the lipid profiling, plasma fractionation was performed either using methanol to extract fatty acyls, bile acids, steroids, and lyso-glycerophospholipids, or using a chloroform/methanol mix to extract glycerolipids, cholesteryl esters, sphingolipids, and glycerophospholipids. Lipid classification followed the classification system proposed by Fahy et al. (J. Lipid Res. 2005; 46:839-861) and the LIPID MAPS initiative (http://www.lipidmaps.org. See FIG. 1.
# [3] = 1.2 mg weekly, 12 weeks (n = 7)
# [4] = 1.8 mg treatment group, week 12
# [5] = 1.8 mg weekly, 12 weeks (n = 9)
# [6] = 2.4 mg weekly, 12 weeks (n = 11)
structure (smiles),measurement,setting,value
CC[C@H](C)[C@H](NC(=O)[C@H](Cc1ccccc1)NC(=O)[C@H](CCC(=O)O)NC(=O)[C@@H]1CCCCNC(=O)CC[C@H](NC(=O)[C@H](CC(=O)O)NC(=O)[C@H](CC(C)C)NC(=O)[C@H](Cc2ccc(O)cc2)NC(=O)[C@H](CCCCN)NC(=O)[C@H](CO)NC(=O)[C@H](Cc2ccc(O)cc2)NC(=O)[C@H](CC(=O)O)NC(=O)[C@H](CO)NC(=O)[C@@H](NC(=O)[C@H](Cc2ccccc2)NC(=O)[C@@H](NC(=O)CNC(=O)[C@H](CCC(N)=O)NC(=O)C(C)(C)NC(=O)[C@@H](N)Cc2c[nH]cn2)[C@@H](C)O)[C@@H](C)O)C(=O)N[C@@H](CCCCNC(=O)[C@H]2O[C@@H](OCCCCCCCCCCCCCCCCCC(=O)O)[C@H](O)[C@@H](O)[C@@H]2O)C(=O)N[C@@H](C)C(=O)N[C@@H](C)C(=O)N1)C(=O)N[C@@H](CCC(N)=O)C(=O)N[C@@H](Cc1c[nH]c2ccccc12)C(=O)N[C@@H](CC(C)C)C(=O)N[C@@H](CC(C)C)C(=O)N[C@@H](CCC(N)=O)C(=O)N[C@H](C(N)=O)[C@@H](C)O [pemvidutide],EC50,[1],~40 pM
same,"BMI, % mean, change from baseline",[2]; [3],−4.8%
same,"Diastolic BP, % mean, change from baseline",[2]; [3],−4.7%
same,"HDL cholesterol, % mean, change from baseline",[2]; [3],−16.7%
same,"LDL cholesterol, % mean, change from baseline",[2]; [3],−18.4%
same,"Systolic BP, % mean, change from baseline",[2]; [3],−10.2%
same,"Total cholesterol, % mean, change from baseline",[2]; [3],−20.0%
same,"Triglycerides, % mean, change from baseline",[2]; [3],−37.0%
same,"Weight loss, % mean, change from baseline",[2]; [3],−4.9%
same,mean body weight loss,"[2]; 1.8 mg dose level, week 12",10.3%
same,mean body weight loss after subtraction of placebo,"[2]; 1.8 mg dose level, week 12",8.7%
same,subjects who achieved at least 10% body weight loss,[2]; [4],over half
same,subjects who lost at least 5% of their body weight,[2]; [4],all subjects
same,"Apoprotein B, % mean, change from baseline",[2]; [5],−23.4%
same,"BMI, % mean, change from baseline",[2]; [5],−10.4%
same,"Diastolic BP, % mean, change from baseline",[2]; [5],−7.1%
same,"HDL cholesterol, % mean, change from baseline",[2]; [5],−30.3%
same,"LDL cholesterol, % mean, change from baseline",[2]; [5],−25.6%
same,"Systolic BP, % mean, change from baseline",[2]; [5],−12.5%
same,"Total cholesterol, % mean, change from baseline",[2]; [5],−28.0%
same,"Triglycerides, % mean, change from baseline",[2]; [5],−37.9%
same,"Weight loss, % mean, change from baseline",[2]; [5],−10.3%
same,"Apoprotein B, % mean, change from baseline",[2]; [6],−16.8%
same,"Diastolic BP, % mean, change from baseline",[2]; [6],−6.0%
same,"HDL cholesterol, % mean, change from baseline",[2]; [6],−36.0%
same,"LDL cholesterol, % mean, change from baseline",[2]; [6],−23.9%
same,"Systolic BP, % mean, change from baseline",[2]; [6],−17.4%
same,"Total cholesterol, % mean, change from baseline",[2]; [6],−27.7%
same,"Triglycerides, % mean, change from baseline",[2]; [6],−29.2%
same,"Weight loss, % mean, change from baseline",[2]; [6],−9.0%
same,weight loss as compared to placebo,[2]; 12 weeks of weekly administration,significant weight loss
same,mean weight losses observed in the study,"[2]; across dose levels, 12 weeks",up to 10.3%
same,SAEs or AEs leading to treatment discontinuation,"[2]; all dose groups, 12 weeks",no SAEs or AEs leading to treatment discontinuation
same,severity of AEs,"[2]; all dose groups, 12 weeks",mild or moderate
same,tolerability,"[2]; all dose levels (1.2, 1.8, 2.4 mg weekly), without dose titration",safe and well-tolerated
